The list shows a part of the results. Cut-off read from the data, not from the text of the source: active = GI50 up to about 1.1 µM and inactive = higher. These assays gave more results; the selection is not random.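 All cell lines were grown in 96-well plates and treated with compound for 48 hours. GI50 marks 50% less growth.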 For some assays here: Potency and affinity values are given separately.
What was measured:
Experiment in all cases: NCI tumour cell line growth inhibition, 48 h
HT-29 = system: HT-29
Hs-578T = system: Hs-578T
IGROV-1 = system: IGROV-1
K562 = system: K562
KM12 = system: KM12
LOX IMVI = system: LOX IMVI
M14 = system: M14
KM-20L2 = system: KM-20L2
LXFL 529 = system: LXFL 529
M19-MEL = system: M19-MEL

Measured: GI50

O=[N+]([O-])C1([N+](=O)[O-])COCOC1
inactive: HT-29 = 42.3 µM | Hs-578T > 100 µM | IGROV-1 = 27.5 µM | K562 = 24.5 µM | KM12 = 61.9 µM | LOX IMVI > 100 µM | M14 = 38.7 µM

CCCCCCCCCCCCCNCC(C)O (stereo not drawn)
inactive: HT-29 = 2.46 µM | Hs-578T 18.4 µM | IGROV-1 = 12 µM | K562 = 4.63 µM | KM12 = 14.9 µM | LOX IMVI 7.85 µM | M14 = 11 µM

ClCCSc1c2ccccc2nc2ccccc12
inactive: HT-29 = 4.12 µM | Hs-578T 2.77 µM | IGROV-1 = 4.69 µM | K562 = 15.1 µM | KM12 = 5.18 µM | LOX IMVI 3.81 µM | M14 = 11.1 µM

O=[N+]([O-])c1ncn(F)c1[N+](=O)[O-]
inactive: HT-29 = > 100 µM | IGROV-1 = > 100 µM | K562 = > 100 µM | KM12 = > 100 µM | LOX IMVI 79.8 µM | M14 = > 100 µM

COc1ccc2nccc(C=O)c2c1
inactive: HT-29 = 3.01 µM | Hs-578T 6.17 µM | IGROV-1 = 9.06 µM | KM12 = 30.1 µM | M14 = 3.58 µM
active: K562 = 0.0745 µM | LOX IMVI 0.615 µM

O=[N+]([O-])C(Cl)(Cl)/C=C(\Cl)C(Cl)(Cl)[N+](=O)[O-]
active: K562 = 0.0159 µM

O=[N+]([O-])C1([N+](=O)[O-])CCCc2nonc21
inactive: HT-29 = 30.4 µM | Hs-578T 13.8 µM | IGROV-1 = 17.6 µM | KM12 = 33 µM | LOX IMVI 17.2 µM | M14 = 16.3 µM

CCCC[S+](N)(=O)CCC(N)P(=O)(O)O (stereo not drawn)
inactive: HT-29 = > 100 µM | Hs-578T > 100 µM | IGROV-1 = > 100 µM | K562 = > 100 µM | LOX IMVI 37 µM | M14 = 77.1 µM

COc1ccc(C[N+](C)(CCCl)CCCl)c([N+](=O)[O-])c1
inactive: HT-29 = > 100 µM | Hs-578T > 100 µM | IGROV-1 = > 100 µM | K562 = > 100 µM | KM12 = > 100 µM | LOX IMVI > 100 µM | M14 = > 100 µM

COP(C)(=O)C(N)Cc1ccccc1 (stereo not drawn)
inactive: HT-29 = > 100 µM | Hs-578T > 100 µM | IGROV-1 = > 100 µM | K562 = > 100 µM | KM12 = > 100 µM | LOX IMVI > 100 µM | M14 = > 100 µM

Cc1ccc([N+](=O)[O-])c(C[N+](C)(CCCl)CCCl)c1
inactive: HT-29 = 18.2 µM | Hs-578T 56 µM | IGROV-1 = 19.8 µM | K562 = 16.7 µM | KM12 = 14.8 µM | LOX IMVI 22.2 µM | M14 = 12.8 µM

Cc1ccc2ccc3ccc4ccccc4c3c2c1.O=C1c2cc([N+](=O)[O-])ccc2-c2c1cc([N+](=O)[O-])cc2[N+](=O)[O-]
inactive: HT-29 = 1.49 µM | Hs-578T 3.22 µM | K562 = 1.26 µM | KM12 = 1.14 µM | LOX IMVI 1.3 µM | M14 = 6.56 µM
active: IGROV-1 = 0.644 µM

NNc1nc2nonc2nc1NN
inactive: HT-29 = 27.9 µM | Hs-578T 73.3 µM | IGROV-1 = 21.8 µM | K562 = 33.4 µM | KM12 = 46.1 µM | LOX IMVI 31.6 µM | M14 = 27.9 µM

O=C1Nc2ccc([N+](=O)[O-])cc2/C1=N/Nc1ccc([N+](=O)[O-])cc1[N+](=O)[O-]
inactive: HT-29 = 10 µM | IGROV-1 = 51.6 µM | K562 = 36.1 µM | KM-20L2 = 24.2 µM | KM12 = 27.8 µM | LOX IMVI 28.1 µM | LXFL 529 = 37.3 µM | M14 = 23.4 µM | M19-MEL 28.8 µM

CC1=CC2OC3CC4OC(=O)/C=C\C=C\C(C(C)O)OCCC(C)C(O)C(=O)OCC2(CC1O)C4(C)C31CO1 (stereo not drawn)
active: K562 = < 0.005 µM

Nc1nc2c(ncn2CCN(CCCl)CCCl)c(=O)[nH]1
inactive: HT-29 = > 100 µM | IGROV-1 = > 100 µM | K562 = > 100 µM | KM-20L2 = > 100 µM | KM12 = > 100 µM | LXFL 529 = > 100 µM | M14 = > 100 µM | M19-MEL > 100 µM

Cc1[nH]c2c(C)c([N+](=O)[O-])c(C)c([N+](=O)[O-])c2c1[N+](=O)[O-]
inactive: HT-29 = 7.73 µM | IGROV-1 = 5.11 µM | K562 = 5.83 µM | KM-20L2 = 6.79 µM | KM12 = 10.5 µM | LOX IMVI 4.61 µM | LXFL 529 = 9.51 µM | M14 = 13.4 µM | M19-MEL 10 µM

O[C@H]1[C@@H](O)CC2CCN3Cc4cc5c(cc4[C@H]1C23)OCO5 (stereo partly drawn)
inactive: HT-29 = > 100 µM | IGROV-1 = > 100 µM | K562 = > 100 µM | KM-20L2 = > 100 µM | KM12 = > 100 µM | LOX IMVI > 100 µM | LXFL 529 = > 100 µM | M14 = > 100 µM | M19-MEL > 100 µM

O=C1CCN2CCCC12 (stereo not drawn)
inactive: HT-29 = > 100 µM | Hs-578T > 100 µM | IGROV-1 = > 100 µM | K562 = 69.3 µM | KM12 = > 100 µM | LOX IMVI 97.3 µM | M14 = 68.7 µM

O=[As](O)(O)O
inactive: HT-29 = > 100 µM | Hs-578T 72.8 µM | IGROV-1 = 22.9 µM | K562 = > 100 µM | KM12 = > 100 µM | LOX IMVI > 100 µM | M14 = > 100 µM

COc1ccc([N+](=O)[O-])c(C[N+](C)(CCCl)CCCl)c1
inactive: HT-29 = > 100 µM | Hs-578T > 100 µM | IGROV-1 = > 100 µM | K562 = > 100 µM | KM12 = > 100 µM | LOX IMVI > 100 µM | M14 = > 100 µM

Cc1ccc2ccc(C)c(C)c2c1.O=[N+]([O-])c1cc([N+](=O)[O-])c(O)c([N+](=O)[O-])c1O
inactive: HT-29 = > 100 µM | Hs-578T > 100 µM | IGROV-1 = > 100 µM | K562 = > 100 µM | KM12 = > 100 µM | LOX IMVI > 100 µM | M14 = 84.3 µM

C[S+](N)(=O)CCC(N)P(=O)(O)O (stereo not drawn)
inactive: HT-29 = > 100 µM | Hs-578T > 100 µM | IGROV-1 = > 100 µM | K562 = > 100 µM | LOX IMVI 39.8 µM | M14 = 70.8 µM

O[C@@H]1CCN2CCC[C@H]12
inactive: HT-29 = > 100 µM | IGROV-1 = > 100 µM | K562 = > 100 µM | KM12 = > 100 µM | LOX IMVI > 100 µM | M14 = > 100 µM
